# Biological target: Delta-type opioid receptor (Homo sapiens, UniProt P41143)
# Chains of the proteins cited; added tags and fusions are not shown.
# UniProt P41143, whole entry: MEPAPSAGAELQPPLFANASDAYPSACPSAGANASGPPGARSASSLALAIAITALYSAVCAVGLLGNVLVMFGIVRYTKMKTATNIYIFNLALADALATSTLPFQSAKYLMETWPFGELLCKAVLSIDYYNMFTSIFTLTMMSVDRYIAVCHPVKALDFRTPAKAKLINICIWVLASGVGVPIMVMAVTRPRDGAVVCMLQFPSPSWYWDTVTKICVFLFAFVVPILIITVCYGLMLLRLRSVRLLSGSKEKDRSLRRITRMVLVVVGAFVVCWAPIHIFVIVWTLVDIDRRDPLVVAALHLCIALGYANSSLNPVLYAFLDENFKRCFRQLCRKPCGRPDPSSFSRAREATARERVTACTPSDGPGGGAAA
# Assay: ASSAY_NAME: ChEBML_53437 DESCRIPTION: Compound was tested for its ability to displace [3H]Cl-DPDPE from delta opioid receptor in hartley guinea pig brain membrane in the presence of 100 nM of DPDPE
row,SMILES,IC50
1,CCOc1ccc(C2=N[C@H]3C45CCN(C)C(Cc6ccc(OC)c(O)c64)[C@]54C=C[C@@]3(OC)[C@@]2(C)C4)cc1,12 nM
2,COC12C=CC34C[C@@]1(C)C(c1ccccc1)=N[C@H]2C31CCN(C)C4Cc2ccc(O)cc21,0.69 nM
3,CO[C@]12C=C[C@]34C[C@@]1(C)[C@H](c1ccccc1)N(C)[C@H]2C31CCN(C)C4Cc2ccc(O)cc21,0.71 nM
4,COc1ccc2c(c1O)C13CCN(C)C(C2)C12C=CC1(OC)[C@H]3N=C(c3ccccc3)[C@]1(C)C2,2.4 nM
5,COC12C=CC34C[C@@]1(C)[C@H](c1ccccc1)N[C@H]2C31CCN(C)C4Cc2ccc(O)cc21,0.32 nM
6,COc1ccc2c(c1OC)[C@]13CC[N+](C)(C)[C@H](C2)[C@]12C=C[C@]1(OC)[C@H]3N=C(c3ccccc3)[C@]1(C)C2,34 nM
